Experiment [1] addresses T1, Potassium channel subfamily T member 2 (Homo sapiens) (UniProt Q6UVM3).
T1 sequence (whole entry): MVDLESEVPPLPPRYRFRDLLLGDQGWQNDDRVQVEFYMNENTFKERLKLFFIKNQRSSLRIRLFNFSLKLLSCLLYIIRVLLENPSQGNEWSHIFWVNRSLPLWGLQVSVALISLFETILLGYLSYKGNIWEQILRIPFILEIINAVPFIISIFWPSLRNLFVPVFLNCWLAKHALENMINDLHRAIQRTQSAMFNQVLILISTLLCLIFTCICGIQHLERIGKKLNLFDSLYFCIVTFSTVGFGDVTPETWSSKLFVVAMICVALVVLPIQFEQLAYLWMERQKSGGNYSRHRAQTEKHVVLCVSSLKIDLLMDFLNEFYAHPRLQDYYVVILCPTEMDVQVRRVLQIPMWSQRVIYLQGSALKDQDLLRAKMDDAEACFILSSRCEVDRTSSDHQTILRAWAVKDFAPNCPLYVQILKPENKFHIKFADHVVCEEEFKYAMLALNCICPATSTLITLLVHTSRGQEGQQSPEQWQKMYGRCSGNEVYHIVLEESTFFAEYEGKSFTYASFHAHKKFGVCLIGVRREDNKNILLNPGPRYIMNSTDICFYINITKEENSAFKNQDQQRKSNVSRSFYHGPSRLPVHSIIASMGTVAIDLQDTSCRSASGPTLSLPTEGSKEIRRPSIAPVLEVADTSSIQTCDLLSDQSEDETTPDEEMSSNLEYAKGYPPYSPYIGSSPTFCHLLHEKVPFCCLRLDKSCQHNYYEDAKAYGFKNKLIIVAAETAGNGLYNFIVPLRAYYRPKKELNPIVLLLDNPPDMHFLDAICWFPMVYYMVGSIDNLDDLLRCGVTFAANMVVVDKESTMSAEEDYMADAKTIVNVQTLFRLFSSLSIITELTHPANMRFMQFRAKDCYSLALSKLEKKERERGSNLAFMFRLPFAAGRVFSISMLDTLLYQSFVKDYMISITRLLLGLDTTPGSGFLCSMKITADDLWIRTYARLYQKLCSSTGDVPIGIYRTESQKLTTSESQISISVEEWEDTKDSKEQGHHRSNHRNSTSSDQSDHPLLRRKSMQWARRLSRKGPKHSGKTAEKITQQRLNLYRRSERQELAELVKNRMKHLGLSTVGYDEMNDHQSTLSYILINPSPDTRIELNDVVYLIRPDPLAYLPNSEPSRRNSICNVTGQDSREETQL
Briefly: Inhibition of Slick (unknown origin) expressed in HEK293 cells at 30 uM measured by thallium flux assay relative to control. The class given is cell-based.

Chains of the proteins cited; added tags and fusions are not shown. Lines headed by an entry give the natural chain unless they say otherwise; changes in a name come on top.
UniProt Q12791: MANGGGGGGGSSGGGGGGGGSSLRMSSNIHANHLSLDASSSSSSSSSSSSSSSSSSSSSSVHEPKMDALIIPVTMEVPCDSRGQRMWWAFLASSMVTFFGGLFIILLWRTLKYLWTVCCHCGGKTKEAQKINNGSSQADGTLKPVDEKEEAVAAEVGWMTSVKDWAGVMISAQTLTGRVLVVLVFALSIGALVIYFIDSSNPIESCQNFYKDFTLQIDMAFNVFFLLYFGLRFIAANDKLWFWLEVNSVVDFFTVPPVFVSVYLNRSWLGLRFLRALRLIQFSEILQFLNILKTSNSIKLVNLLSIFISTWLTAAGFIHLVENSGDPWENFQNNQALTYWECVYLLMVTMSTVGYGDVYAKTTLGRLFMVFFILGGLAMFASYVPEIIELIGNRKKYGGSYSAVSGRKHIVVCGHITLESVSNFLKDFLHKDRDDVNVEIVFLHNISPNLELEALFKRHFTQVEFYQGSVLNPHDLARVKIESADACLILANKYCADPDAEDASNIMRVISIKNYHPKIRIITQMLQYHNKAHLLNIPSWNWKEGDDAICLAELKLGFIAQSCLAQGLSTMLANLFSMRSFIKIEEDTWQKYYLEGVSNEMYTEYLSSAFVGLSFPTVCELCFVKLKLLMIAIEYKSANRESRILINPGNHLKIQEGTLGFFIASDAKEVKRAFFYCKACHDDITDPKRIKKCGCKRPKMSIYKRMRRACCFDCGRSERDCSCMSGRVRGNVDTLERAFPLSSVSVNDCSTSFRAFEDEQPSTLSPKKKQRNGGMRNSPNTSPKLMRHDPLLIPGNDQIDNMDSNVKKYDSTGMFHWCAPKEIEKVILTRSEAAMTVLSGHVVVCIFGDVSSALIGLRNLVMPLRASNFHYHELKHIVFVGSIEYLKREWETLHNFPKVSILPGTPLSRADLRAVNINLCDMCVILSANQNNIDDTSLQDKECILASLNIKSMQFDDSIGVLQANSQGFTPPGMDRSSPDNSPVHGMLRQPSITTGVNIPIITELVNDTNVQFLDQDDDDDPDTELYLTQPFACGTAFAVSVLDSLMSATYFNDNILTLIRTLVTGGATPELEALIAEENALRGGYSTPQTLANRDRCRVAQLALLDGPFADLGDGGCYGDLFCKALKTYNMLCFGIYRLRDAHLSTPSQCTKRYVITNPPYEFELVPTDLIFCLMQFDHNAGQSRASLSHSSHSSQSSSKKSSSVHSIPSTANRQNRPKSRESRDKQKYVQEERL

Experiment [2] concerns the target Calcium-activated potassium channel subunit alpha-1 (Homo sapiens, UniProt Q12791). As to the kind of experiment: Inhibition of Maxi-K (unknown origin) expressed in HEK293 cells at 30 uM measured by thallium flux assay relative to control. The class given is cell-based.

For `COc1ccc(Cl)cc1NC(=O)[C@H](C)N1CCN(S(=O)(=O)N2CCC(C(F)(F)F)CC2)CC1`, in experiment [1], the Efficacy stood at 34%.

For the molecule `COc1ccc(C(F)(F)F)cc1NC(=O)CN1CCN(S(=O)(=O)N2CCC(C)CC2)CC1`, the Efficacy in experiment [2] was 36%; in experiment [1], 29%.

These data come from ChEMBL document CHEMBL5214957.
